Results reported in patent US20250129048A1, “MELANOCORTIN 4 RECEPTOR ANTAGONISTS AND USES THEREOF” (Pfizer Inc., priority 2021, published 2025).

By UniProt entry, the sequences of proteins in these tests, tags left out.
UniProt P32245, whole entry: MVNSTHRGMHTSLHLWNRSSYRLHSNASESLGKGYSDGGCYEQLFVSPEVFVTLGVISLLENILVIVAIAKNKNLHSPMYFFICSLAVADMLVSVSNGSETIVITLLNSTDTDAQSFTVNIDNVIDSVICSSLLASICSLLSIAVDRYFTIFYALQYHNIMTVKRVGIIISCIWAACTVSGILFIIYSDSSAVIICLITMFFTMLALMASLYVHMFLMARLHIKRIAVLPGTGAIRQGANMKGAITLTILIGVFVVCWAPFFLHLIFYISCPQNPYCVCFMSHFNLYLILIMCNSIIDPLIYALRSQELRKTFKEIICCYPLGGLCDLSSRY

Legend:
[1] = target: hMC4R (Homo sapiens (Human), UniProt P32245); test: In vitro binding affinity assay using hMC4R (radioligand competition binding, CHO cell membranes); settings: competition with [125I]-(Nle4, D-Phe7)-α-MSH 0.5 nM; Ki from IC50 by Cheng-Prusoff; read-out: Ki (nM) geometric mean
Experimental: The binding affinity of test compounds at the α-melanocyte-stimulating hormone receptor (hMC4R) was assessed using a radioligand competition binding assay. Recombinant Chinese hamster ovaries (CHO) cells stably expressing hMC4R (PerkinElmer #ES-191-C) were used for competitive binding. hMC4R membranes were grown in Dulbecco's Modified Essential Medium and Ham's F-12 Medium (DMEM/F12), 10% heat inactivated fetal bovine serum (FBS), 0.4 mg/mL Geneticin and 2 mM L-glutamine. Cell membranes were bulked and frozen until the assay was performed.
Compounds were solubilized in 100% dimethyl sulfoxide (DMSO) to a concentration of 30 mM. A 10-point intermediate dilution series using half log dilutions was created in 100% DMSO with a top concentration of 0.03 mM. […] The exact concentration of radioligand used for each experiment was determined by liquid scintillation counting and adjusted if necessary. […]
The raw data (expressed as counts per minute) were analyzed using ActivityBase (IDBS Data Management Software). […] Equilibrium dissociation constant for inhibitor of ligand and receptor interaction (Ki) values were then calculated from the IC50 values using the Cheng-Prusoff equation: Ki=IC50/(1+([L]/Kd)), where [L] is the concentration of the radioligand used in the experiment and Kd is the affinity of the radioligand (determined in separate saturation experiments).

[2] = target: human Melanocortin-4 receptor (MC4R) (Homo sapiens (Human), UniProt P32245); test: Functional in vitro MC4R antagonist potency assay (intracellular cAMP, HTRF, CHO cells); format: cell-based; settings: cAMP after EC80 agonist stimulation (200 nM αMSH); Kb from IC50 by Leff-Dougall equation; read-out: Kb (nM) Antagonist geometric mean
Experimental: The functional in vitro antagonist potency for test compounds was determined by monitoring intracellular cyclic adenosine monophosphate (cAMP) levels in Chinese hamster ovary (CHO—) cells stably expressing the human Melanocortin-4 receptor (MC4R). Following agonist activation, human MC4R associates with the G-protein complex causing the Ga subunit to exchange bound GDP for GTP, followed by dissociation of the Gα-GTP complex. The activated Ga subunit can couple to downstream effectors to regulate the levels of second messengers or cAMP within the cell. Thereby, determination of intracellular cAMP levels allows for pharmacological characterization. Intracellular cAMP levels are quantitated using a homogenous assay utilizing the Homogeneous Time-Resolved Fluorescence (HTRF) technology from CisBio. The method is a competitive immunoassay between native cAMP produced by cells and the cAMP labelled with the acceptor dye, d2. […]
In-house generated CHO cells stably expressing the Gs-coupled human MC4R receptor were plated in 384-well assay plates (Corning, Cat No. 3570) in 50 μL/well of Ham's F-12 containing 10% heat inactivated FBS, 1× penicillin/streptomycin, 1 mM Glutamax (Invitrogen) at a density of 2,500 cells per well and incubated at 37° C. […] Intracellular cAMP levels were quantified as per Cisbio's protocol (5 μL of D2 and then 5 μL Cryptate, incubated for 1-2 hours at room temperature). […]

| Compound | Ki [1] [nM] | Kb [2] [nM] |
| --- | --- | --- |
| COc1cc([C@@H](C)C(=O)N2CC[C@H](Nc3ccc(-c4nc(C(F)F)n(C)n4)c(C)n3)C2)c(F)cn1 [Example 7, (2R)-1-[(3S)-3-({5-[5-(difluoromethyl)-1-methyl-1H-1,2,4-triazol-3-yl]-6-methylpyridin-2-yl}amino)pyrrolidin-1-yl]-2-(5-fluoro-2-methoxypyridin-4-yl)propan-1-one] | 0.77 | 3.3 |
| [2H]C([2H])([2H])n1nc(-c2ccc(N[C@H]3CCN(C(=O)[C@H](C)c4cc(OC)ncc4F)C3)nc2C)nc1C(F)F [Example 17, (2R)-1-[(3S)-3-({5-[5-(difluoromethyl)-1-(^2H3)methyl-1H-1,2,4-triazol-3-yl]-6-methylpyridin-2-yl}amino)pyrrolidin-1-yl]-2-(5-fluoro-2-methoxypyridin-4-yl)propan-1-one] | – | 2 |
